# Earlier results, collected in publication PMC8893036 (European journal of medicinal chemistry, 2022).
# Protein sequences, listed by entry. Tags and fused reporters are not part of them.
# UniProt P0DMS8, whole entry: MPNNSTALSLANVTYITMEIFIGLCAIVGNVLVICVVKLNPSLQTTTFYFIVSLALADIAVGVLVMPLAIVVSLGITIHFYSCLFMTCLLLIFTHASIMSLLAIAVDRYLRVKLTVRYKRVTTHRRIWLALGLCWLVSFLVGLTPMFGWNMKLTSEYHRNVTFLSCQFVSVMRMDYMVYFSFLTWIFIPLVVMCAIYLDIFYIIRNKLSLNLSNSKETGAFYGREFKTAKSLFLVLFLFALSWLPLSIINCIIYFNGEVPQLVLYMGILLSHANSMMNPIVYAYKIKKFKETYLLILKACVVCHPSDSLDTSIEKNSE
# Target: human A3 adenosine receptor (Homo sapiens, UniProt P0DMS8)
# Conditions: agonists; Tables S1 – S4; cited from earlier work
structure (smiles),measurement,value
"CNC(=O)[C@H]1O[C@@H](n2cnc3c(NCc4cccc(I)c4)nc(Cl)nc32)[C@H](O)[C@@H]1O [Compound 4, reference compound]",human A3 adenosine receptor affinity,single digit nM affinity
